By UniProt entry, the sequences of proteins in these tests, tags left out.
UniProt P27695, whole entry: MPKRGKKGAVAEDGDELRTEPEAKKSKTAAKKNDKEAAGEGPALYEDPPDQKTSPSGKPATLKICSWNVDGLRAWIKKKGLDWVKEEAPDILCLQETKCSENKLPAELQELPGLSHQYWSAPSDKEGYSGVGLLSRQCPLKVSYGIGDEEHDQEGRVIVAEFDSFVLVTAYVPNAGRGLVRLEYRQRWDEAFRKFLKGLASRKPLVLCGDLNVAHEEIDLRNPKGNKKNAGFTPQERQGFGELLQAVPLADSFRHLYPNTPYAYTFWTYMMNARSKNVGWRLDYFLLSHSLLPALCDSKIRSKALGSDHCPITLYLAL

Where “and” joins values, the source holds several entries; their conditions need not be identical. Identical values can stand only once. This is a selection; strong and weak results do not stand in their true shares. Records with an inconclusive call do not appear. Calls of active or inactive are those of the source. Calls follow the shape of the dose curve; as a rule, active = well fitted inhibition curve with a large enough effect; inconclusive = small, poorly fitted or top-dose-only effect; inactive = no such curve, though single readings can be large or run the other way.
Each compound was assayed against DNA repair nuclease/redox regulator APEX1 (Homo sapiens) (UniProt P27695) (assay: qHTS Assay for Inhibitors of the Human Apurinic/apyrimidinic Endonuclease 1 (APE1)). Settings: recombinant APE1, TAMRA/BHQ-2 abasic DNA cleavage fluorescence; at 65.8 µM (top of the series).
`CN(CCCl)CCCl` was tested, and the activity change, negative = inhibition was inactive: 16.6% and inactive: -7.33%. `CCC(=O)N(c1ccccc1)C1(COC)CCN(CCc2cccs2)CC1` was tested, and the activity change, negative = inhibition was inactive: 0.664%. `CCC(=O)N(c1ccccc1)C1(COC)CCN(CCn2nnn(CC)c2=O)CC1` was tested, and the activity change, negative = inhibition was inactive: 2.18%. For `O=[N+]([O-])C(Cl)(Cl)Cl`, the activity change, negative = inhibition was inactive: -1.54%.
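Also: plate controls were vehicle for no effect and reference inhibitor for full effect; nearly all actives have a fitted effect of over 55% in size.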
